Data from patent US20250296958A1, “GL[…] E[…]” (THE ADMINISTRATORS OF THE TULANE EDUCATIONAL FUND, priority 2022, published 2025).

Biological target: mu opioid receptor, P35372
Experiment: PDSP receptor binding; log of Ki in M

YKWFEG (modifications not checked) [ZH853]
Log Ki: -9.03
